{"source": "patent EP0759299B1", "about": "“Potentiation of serotonin response” (ELI LILLY AND COMPANY, priority 1995, dated 1997)", "test_system": "5-HT", "test": "Microdialysis assay of monoamines in hypothalamus of conscious rats: 5-HT", "assay_type": "in vivo, Sprague-Dawley rats", "conditions": "percent of baseline; for 5-HT (%): pindolol s.c. infusion 50 mg/kg/hr from 120 min, single animal; for % 5-HT: fluoxetine 10 mg/kg i.p. at 100 min, average, N=5", "protocol": "Sprague-Dawley rats (Harlan or Charles River) weighing 270-300 grams were surgically implanted with microdialysis probes under chloral hydrate/pentobarbital anesthesia (170 and 36 mg/kg i.p. in 30% propylene glycol, 14% ethanol) (Perry and Fuller, Effect of fluoxetine on serotonin and dopamine concentration in rat hypothalamus after administration of fluoxetine plus L-5-hydroxytryptophan, Life Sci., 50, 1683-90 (1992)). A David Kopf stereotaxic instrument was used to implant the probe unilaterally in the hypothalamus at coordinates rostral -1.5 mm, lateral -1.3 mm, and ventral -9.0 mm (Paxinos and Watson, 1986). After a 48 hour recovery period, rats were placed in a large plastic bowl with a mounted liquid swivel system (CMA/120 system for freely moving animals, Bioanalytical Systems, West Lafayette, IN). Filtered artificial cerebrospinal fluid (CSF) (150 mM NaCl, 3.0 mM KCl, 1.7 mM CaCl2, and 0.9 mM MgCl2) was perfused through the probe at a rate of […]. The output dialysate line was fitted to a tenport HPLC valve with a 20 µl loop. At the end of each 30 minute sampling period, dialysate collected in the loop was injected on an analytical column (Spherisorb 3 µ ODS2, 2X150 mm, Keystone Scientific).\nThe method used to measure monoamines was as described by Perry and Fuller (1992). Briefly, dialysate collected in the 20 µl loop was assayed for 5-HT, NE and DA. The 20 µl injection went onto the column with a mobile phase which resolved NE, DA, and 5-HT: 75 mM potassium acetate, 0.5 mM ethylenediaminetetraacetic acid, 1.4 mM sodium octanesulfonic acid and 8% methanol, pH 4.9. The mobile phase for the amine column was delivered with a flow programmable pump at an initial flow rate of 0.2 ml/min increasing to 0.3 ml/min at 5 min then decreasing back to 0.2 ml/min at 26 min with a total run time of 30 min. Flow programming was used to elute the 5-HT within a 25 min time period. The electrochemical detector (EG&G, Model 400) for the amine column was set at a potential of 400 mV and a sensitivity of 0.2 nA/V. The data was collected and analyzed with a Hewlett-Packard HP1000 chromatography system which measured peak heights and calculated sample concentrations. Basal levels were measured for at least 90 minutes prior to drug administration.\nExtracellular levels of the amines in microdialysates were calculated by comparing peak heights with those of 50 pmole standards. The mean value of the four samples immediately preceding drug administration served as the basal level for each experiment and data was converted to percent of basal. Paired t-tests were used to compare the mean of the basal values from the time point immediately preceding drug administration to those of each time point thereafter.", "data": [{"compound": "CC(C)NCC(O)COc1cccc2[nH]ccc12", "note": "(racemic) [pindolol, 4-(2-hydroxy-3-isopropylaminopropoxy)-indole]", "values": [{"measurement": "5-HT (%)", "setting": "Test 2, 150 min", "result": 67.7, "unit": "%"}, {"measurement": "5-HT (%)", "setting": "Test 2, 180 min", "result": 64.7, "unit": "%"}, {"measurement": "5-HT (%)", "setting": "Test 2, 210 min", "result": 27.4, "unit": "%"}, {"measurement": "5-HT (%)", "setting": "Test 2, 240 min", "result": 18.8, "unit": "%"}]}, {"compound": "CNCCC(Oc1ccc(C(F)(F)F)cc1)c1ccccc1", "note": "(racemic) [fluoxetine, N-methyl-3-(p-trifluoromethylphenoxy)-3-phenylpropylamine]", "values": [{"measurement": "% 5-HT", "setting": "Test 3, 120 min", "result": 115.3, "unit": "%"}, {"measurement": "% 5-HT", "setting": "Test 3, 140 min", "result": 129.0, "unit": "%"}, {"measurement": "% 5-HT", "setting": "Test 3, 160 min", "result": 163.6, "unit": "%"}, {"measurement": "% 5-HT", "setting": "Test 3, 180 min", "result": 101.6, "unit": "%"}, {"measurement": "% 5-HT", "setting": "Test 3, 200 min", "result": 141.5, "unit": "%"}, {"measurement": "% 5-HT", "setting": "Test 3, 220 min", "result": 158.2, "unit": "%"}, {"measurement": "% 5-HT", "setting": "Test 3, 240 min", "result": 155.7, "unit": "%"}, {"measurement": "% 5-HT", "setting": "Test 3, 260 min", "result": 118.5, "unit": "%"}, {"measurement": "% 5-HT", "setting": "Test 3, 280 min", "result": 167.3, "unit": "%"}, {"measurement": "% 5-HT", "setting": "Test 3, 300 min", "result": 126.6, "unit": "%"}, {"measurement": "% 5-HT", "setting": "Test 3, 320 min", "result": 187.7, "unit": "%"}, {"measurement": "% 5-HT", "setting": "Test 3, 340 min", "result": 190.1, "unit": "%"}]}]}
